This assay deals with Delta-type opioid receptor (Rattus norvegicus, UniProt P33533). As to the kind of experiment: Agonist activity at rat delta-opioid receptor expressed in HEK293 cells co-expressing Rluc2-EPAC-GFP10 biosenser assessed as inhibition of forskolin-induced cAMP level after 10 mins by fluorescence based assay. It counts as functional, cell-based. On the technique in general: Cyclic AMP is a second messenger, typically raised through Gs and lowered through Gi signalling.

Protein sequences, listed by entry. Tags and fused reporters are not part of them.
UniProt P33533, whole entry: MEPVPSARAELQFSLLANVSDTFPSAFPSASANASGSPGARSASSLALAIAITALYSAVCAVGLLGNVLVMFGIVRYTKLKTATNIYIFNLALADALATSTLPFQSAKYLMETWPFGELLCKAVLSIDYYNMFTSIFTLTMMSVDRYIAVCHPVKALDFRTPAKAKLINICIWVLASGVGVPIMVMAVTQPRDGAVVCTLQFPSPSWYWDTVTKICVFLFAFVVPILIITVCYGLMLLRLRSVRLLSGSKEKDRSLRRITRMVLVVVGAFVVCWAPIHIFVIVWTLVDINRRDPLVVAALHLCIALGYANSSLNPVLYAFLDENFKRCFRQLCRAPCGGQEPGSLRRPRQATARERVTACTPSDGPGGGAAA

For `C[C@@H](NC(=O)[C@@H](N)Cc1ccc(O)cc1)C(=O)NCC(=O)N(C)[C@@H](Cc1ccccc1)C(=O)NCCO` [DAMGO], the EC50 (as a rule, the concentration needed to bring the measured effect to its halfway point) amounted to 49 nM.

The values above are taken from ChEMBL document CHEMBL4118228, “Chemical space screening around Phe3 in opioid peptides: Modulating µ versus δ agonism by Suzuki-Miyaura cross-couplings” (Bioorg Med Chem Lett, 2018).
